{
  "sequences": {"note": "Protein sequences, listed by entry. Tags and fused reporters are not part of them. Residues count along the entry.", "UniProt P06280, 32-429 limits assumed": "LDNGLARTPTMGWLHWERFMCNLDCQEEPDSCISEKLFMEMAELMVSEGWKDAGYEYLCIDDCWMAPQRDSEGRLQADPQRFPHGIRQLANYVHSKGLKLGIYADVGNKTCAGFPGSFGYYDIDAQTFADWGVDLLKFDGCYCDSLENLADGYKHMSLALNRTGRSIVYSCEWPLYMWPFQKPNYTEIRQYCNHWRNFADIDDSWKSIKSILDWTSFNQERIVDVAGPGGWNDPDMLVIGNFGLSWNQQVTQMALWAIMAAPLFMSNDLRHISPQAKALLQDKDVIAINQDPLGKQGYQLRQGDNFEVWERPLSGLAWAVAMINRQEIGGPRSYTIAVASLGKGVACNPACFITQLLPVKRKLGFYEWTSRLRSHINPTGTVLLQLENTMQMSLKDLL"},
  "source": "PubChem BioAssay AID2107",
  "about": "(National Center for Advancing Translational Sciences (NCATS), 2009)",
  "note": "The entries are a selection whose mix differs from that of the whole data set. Some of these compounds have results that are not shown, active ones among them. The source made the active and inactive calls. The call rests on the fitted dose curve; in most records, active means well fitted inhibition curve with a large enough effect; inconclusive means small, poorly fitted or top-dose-only effect, or effect the other way; inactive means flat fitted curve, though single readings scatter.",
  "data": [
    {"biological_target": "Alpha-galactosidase A (Homo sapiens) (UniProt P06280)", "experiment": "qHTS Assay for Inhibitors and Activators of Human alpha-Galactosidase From Spleen Homogenate;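 further: 0% = enzyme with vehicle and -100% = no enzyme basal signal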", "details": "4MU-alpha-Gal fluorescence, 40 min; at 80 µM (top of the series)", "excerpt": "NIH Chemical Genomics Center [NCGC] NIH Molecular Libraries Probe Production Centers Network [MLPCN] MLPCN Grant: R03 MH084842-01 Assay Submitter (PI): Wei Zheng NCGC Assay Overview: Alpha-galactosidase is a homodimeric glycoprotein that hydrolyzes the terminal alpha-galactosyl moieties from glycolipids and glycoproteins. Deficiency of this enzyme results in Fabry Disease with progressive accumulation of globotriaosylceramide and other glycosphingolipids in vascular endothelial cells that causes renal failure, myocardial infarction and stroke, and premature death in patients. It has been reported that the improper folding and trafficking of alpha-galactosidase resulting from genetic mutations may account for a significant number of Fabry patients. […] We optimized this alpha-galactosidase assay in 1536-well plate format for identification of novel small molecule inhibitors or activators with structures other than the sugar analogs in order to develop new pharmacological chaperones. In particular, this assay is directed towards discovering compounds active in more natural setting, tissue homogenate, that may have been missed by screens of the purified enzyme under more stringent conditions.\nNCGC Assay Protocol Summary: This is a fluorogenic enzyme assay with 4-methylumbelliferyl-alpha-D-galactopyranoside as the substrate and human spleen homogenate containing alpha-galactosidase as the enzyme preparation. Upon hydrolysis of this fluorogenic substrate, the resulting product, 4-methylumbelliferone (which excites at 365 nm and emits at 440 nm) can be detected by a fluorescence plate reader. Data were normalized to the controls for basal activity (without enzyme) and 100% activity (with enzyme). The AC50 values were determined from concentration-response data modeled with the standard Hill equation. Assay buffer: 50 mM citric acid (titrated with potassium phosphate to pH 5.0), 0.01% Tween-20 (pH 5.0 is an optimal condition for this enzyme assay) 1536-well assay protocol for the alpha-galactosidase from human spleen homogenate: (1) Add 2 ul/well spleen homogenate (1 ug) (2) Add 23 nL compounds in DMSO solution. The final titration was 0.5 nM to 58 uM. (3) Add 2 ul of substrate (1 mM final) (4) Incubate at 37C for 40 min (5) Add 2 ul stop solution (1M NaOH and 1M Glycine mixture, pH 10) (6) Detect the assay plate in a ViewLux plate reader (PerkinElmer) with Ex=365 nm and Em=440nm. Keywords: Alpha-galactosidase, Fabry Disease, pharmacological chaperone, chaperone therapy, high throughput screening, alpha- galactosidase inhibitor, MLSMR, MLSCN, NIH Roadmap, qHTS and NCGC", "values": [
      {"smiles": "CC(C)N1C(=O)CC2(CCN(CCOC(=O)C(O)(c3ccccc3)c3ccccc3)CC2)C1=O", "activity change, negative = inhibition": "inactive: 1.94%"},
      {"smiles": "CCN(CC)CC(C)C(C)OC(=O)C(O)(c1ccccc1)c1ccccc1", "note": "(stereo unspecified)", "activity change, negative = inhibition": "inactive: -1.91%"},
      {"smiles": "O=C(NCC1(N2CCCCC2)CCCCC1)c1cc([N+](=O)[O-])ccc1Cl", "activity change, negative = inhibition": "inactive: 2.44%"},
      {"smiles": "CCN1CCCC(OC(=O)C2(O)c3ccccc3C=Cc3ccccc32)C1", "note": "(stereo unspecified)", "activity change, negative = inhibition": "inactive: -9.26%"},
      {"smiles": "C=CCN1CCN(CCOC(=O)C(O)(c2ccccc2)c2ccccc2)CC1", "activity change, negative = inhibition": "inactive: -8.78%"},
      {"smiles": "CN(C)C1CCCC1OC(=O)C(O)(c1ccccc1)c1ccccc1", "note": "(stereo unspecified)", "activity change, negative = inhibition": "inactive: 3.56%"},
      {"smiles": "Cc1ccccc1C(=O)NCC1(N2CCCCC2)CCCCC1", "activity change, negative = inhibition": "inactive: 3.35%"},
      {"smiles": "COc1cccc(C(=O)NCC2(N3CCCCC3)CCCCC2)c1", "activity change, negative = inhibition": "inactive: 5.25%"},
      {"smiles": "CN(C)c1cccc(C(=O)NCC2(N(C)C)CCCCC2)c1", "activity change, negative = inhibition": "inactive: 12.6%"},
      {"smiles": "COc1ccc(Br)c(C(=O)NCC2(N3CCCCC3)CCCCC2)c1", "activity change, negative = inhibition": "inactive: -9.52%"},
      {"smiles": "O=C(OC1CN2CCC1CC2)C(CO)(c1ccccc1)c1ccccc1", "note": "(stereo unspecified)", "activity change, negative = inhibition": "inactive: -0.111%"}
    ]}
  ]
}
